Data on 26 compounds can be found in PubChem BioAssay AID720596 (The Scripps Research Institute Molecular Screening Center, 2013).

SMILES strings stand for the structures. The entries are a selection whose mix differs from that of the whole data set. Some of these compounds have results that are not shown, active ones among them. Activity calls are given as the source filed them. Cut-off read from the data, not from the text of the source: active = inhibition above about 24%; inactive = the rest.

The target of this experiment is Major prion protein (Homo sapiens) (UniProt P04156). Briefly: inhibitors of human cell surface prion protein PrPC, primary screen, cell-based, TR-FRET (AID 720596). Note: 0% = median of the test wells and 100% = reference compound wells. The conditions noted are these: TR-FRET read-out, at 13.8 µM, active compounds read high. For orientation: Time-resolved FRET reads energy transfer from a long-lived donor to a nearby acceptor.
Broadly, the inhibition is the relative decrease from the control value, in per cent. As for `COc1ccc(Cl)cc1C(=O)NCC1(N(C)C)CCCCC1`, the inhibition was inactive: 2.3%.

As for `COc1cccc(C(=O)NCC2(N3CCCCC3)CCCCC2)c1`, the inhibition is inactive: -3.36%.

Consider `O=C(NCC1(N2CCCCC2)CCCCC1)c1cccc(Cl)c1`, for which the inhibition is inactive: 2.7%.

Regarding `CN(C)C1(CNC(=O)c2ccc(Br)cc2)CCCCC1`, the inhibition is inactive: -3.59%.

Take `COc1cc(C(=O)NCC2(N(C)C)CCCCC2)c([N+](=O)[O-])cc1OC`: the inhibition was inactive: -16.6%.

On to `C=C(C)C#CC(O)(C(=O)OC1CCN(C)CC1)c1ccccc1` (stereo unspecified), for which the inhibition is inactive: -7.66%.

With `COc1ccc(Br)c(C(=O)NCC2(N3CCCCC3)CCCCC2)c1`, the inhibition was inactive: -12.7%.

As for `O=C(OCCN1CCCC1)C(O)(c1ccccc1)c1ccccc1`, the inhibition was inactive: 2.29%.

Take `CC(C)Oc1ccc(C(=O)NCC2(N(C)C)CCCCC2)cc1`: the inhibition is inactive: -6.05%.

For `CN(C)c1cccc(C(=O)NCC2(N(C)C)CCCCC2)c1`, the inhibition is inactive: -0.3%.

Regarding `O=C(OC1CN2CCC1CC2)C(CO)(c1ccccc1)c1ccccc1` (stereo unspecified), the inhibition was inactive: 0.59%.

With `COc1cc(SC)ccc1C(=O)NCC1(N(C)C)CCCCC1`, the inhibition was inactive: -4.82%.

Consider `CCN(CC)CC(C)C(C)OC(=O)C(O)(c1ccccc1)c1ccccc1` (stereo unspecified), for which the inhibition is inactive: -9.84%.

On to `CC(C)N1C(=O)CC2(CCN(CCOC(=O)C(O)(c3ccccc3)c3ccccc3)CC2)C1=O`, for which the inhibition was inactive: -4.82%.

As for `Cc1ccc(C(=O)NCC2(N3CCCCC3)CCCCC2)cc1`, the inhibition was inactive: -2.1%.

Regarding `O=C(NCC1(N2CCCCC2)CCCCC1)c1cc([N+](=O)[O-])ccc1Cl`, the inhibition was inactive: -11.5%.

As to `CN1[C@@H]2CC[C@H]1CC(OC(=O)C(O)(c1ccccc1)c1ccccc1)C2` (stereo partly specified), the inhibition was inactive: -7.46%.

As for `O=C(NCC1(N2CCCCC2)CCCCC1)c1cc(F)c(F)cc1Cl`, the inhibition is inactive: -5.05%.

Turning to `C=CCN1CCN(CCOC(=O)C(O)(c2ccccc2)c2ccccc2)CC1`, the inhibition is inactive: 5.58%.

Consider `COc1ccc(C(=O)NCC2(N(C)C)CCCCC2)cc1`, for which the inhibition is inactive: -5.65%.

For the compound `O=C(NCC1(N2CCCCC2)CCCCC1)c1cccc(Br)c1`, the inhibition was inactive: -3.54%.

Turning to `CCN1CCCC(OC(=O)C2(O)c3ccccc3C=Cc3ccccc32)C1` (stereo unspecified), the inhibition is inactive: -13.9%.

Turning to `Cc1cc(C(=O)NCC2(N3CCCCC3)CCCCC2)ccc1[N+](=O)[O-]`, the inhibition is inactive: -8.34%.

On to `CN(C)c1ccc(C(=O)NCC2(N(C)C)CCCCC2)cc1`, for which the inhibition is inactive: 6.48%.

`CN(C)C1CCCC1OC(=O)C(O)(c1ccccc1)c1ccccc1` (stereo unspecified): the inhibition was inactive: -7.89%.

Regarding `Cc1ccccc1C(=O)NCC1(N2CCCCC2)CCCCC1`, the inhibition was inactive: 5.88%.
